Measurements published in ChEMBL document CHEMBL1128541 (J Med Chem, 1995).

Biological target: cGMP-specific 3',5'-cyclic phosphodiesterase (Homo sapiens, UniProt O76074)
Assay: Inhibitory activity against phosphodiesterase 5 from human platelets

IC50: 2.8 nM
SMILES: Cl.Cl.Clc1ccc2nc(-n3ccnc3)nc(NCc3ccccc3)c2c1
